# Laboratory results reported in ChEMBL document CHEMBL5390321, “Transaminases Provide Key Chiral Building Blocks for the Synthesis of Selective M1/M4 Agonists” (ACS Med Chem Lett, 2023).
# Protein sequences, listed by entry. Tags and fused reporters are not part of them.
# UniProt P08172, whole entry: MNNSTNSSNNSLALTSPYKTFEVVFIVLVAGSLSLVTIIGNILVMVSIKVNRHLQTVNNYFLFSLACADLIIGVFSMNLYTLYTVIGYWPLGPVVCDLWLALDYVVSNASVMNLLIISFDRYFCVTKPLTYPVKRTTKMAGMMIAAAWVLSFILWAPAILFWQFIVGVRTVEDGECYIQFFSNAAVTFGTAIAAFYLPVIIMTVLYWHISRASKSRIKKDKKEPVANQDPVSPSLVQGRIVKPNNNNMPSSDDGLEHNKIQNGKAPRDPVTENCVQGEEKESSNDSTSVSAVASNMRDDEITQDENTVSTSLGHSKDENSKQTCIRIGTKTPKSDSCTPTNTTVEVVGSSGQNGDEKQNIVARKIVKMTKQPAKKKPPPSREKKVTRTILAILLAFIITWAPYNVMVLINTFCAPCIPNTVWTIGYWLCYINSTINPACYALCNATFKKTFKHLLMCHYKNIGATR
# Biological target: Muscarinic acetylcholine receptor M2 (Homo sapiens, UniProt P08172)
# Assay: Activation of human cloned muscarinic M2 receptor expressed in CHO-K1 cells by Calcium flux assay
# Format: functional, cell-based
structure (smiles),measurement,value
CCCCCCOc1nsnc1C1=CCCN(C)C1 [XANOMELINE],EC50,770 nM
